Laboratory results as given in patent publication US11383008B2, “Surface-modified polymeric substrates grafted with a properties-imparting compound using clip chemistry” (Centre National de la Recherche Scientifique (CNRS), priority 2016, dated 2022).

How the values were obtained:
L929 cells [1] = settings: PLA and PP grafted with Gadolinium complex; 48 h incubation; FIG. 10B
L929 cells [2] = settings: PLA and PP grafted with Gadolinium complex; 24 h, 48 h and 120 h; FIG. 10B
back muscle tissue = settings: modified meshes vs unmodified meshes, rats, 1 month implantation; FIG. 10C

4-Azidoaniline Modified Gd-2-(4,7,10-triacetic acid)-1,4,7,10-tetraazacyclododecan-1-yl)pentanedioic Acid, (Gd-DOTA-N3) Complex
cytotoxicity by direct contact (cell viability) (L929 cells [1]): non-toxic
cell proliferation on the grafted polymer (L929 cells [2]): non-toxic
intensity of the inflammatory response (lesion intensity i0-i4) (back muscle tissue): less than or equivalent to those observed with unmodified
spreading of the inflammatory response (lesion spreading d0-d2) (back muscle tissue): less than or equivalent to those observed with unmodified
